Columns and labels:
Assay in all cases: Fluorescence-based Ca2+ flux assay with a microplate reader
Type in all cases: cell-based
[1] = target: endogenous mGlu5 in striatal neurons (Rattus norvegicus, UniProt P31424)
[2] = target: endogenous mGlu5 in hippocampal neurons (Rattus norvegicus, UniProt P31424)
[3] = target: endogenous mGlu5 in cortical neurons (Rattus norvegicus, UniProt P31424)

By UniProt entry, the sequences of proteins in these tests, tags left out. Residues count along the entry.
UniProt P31424, 21-1203: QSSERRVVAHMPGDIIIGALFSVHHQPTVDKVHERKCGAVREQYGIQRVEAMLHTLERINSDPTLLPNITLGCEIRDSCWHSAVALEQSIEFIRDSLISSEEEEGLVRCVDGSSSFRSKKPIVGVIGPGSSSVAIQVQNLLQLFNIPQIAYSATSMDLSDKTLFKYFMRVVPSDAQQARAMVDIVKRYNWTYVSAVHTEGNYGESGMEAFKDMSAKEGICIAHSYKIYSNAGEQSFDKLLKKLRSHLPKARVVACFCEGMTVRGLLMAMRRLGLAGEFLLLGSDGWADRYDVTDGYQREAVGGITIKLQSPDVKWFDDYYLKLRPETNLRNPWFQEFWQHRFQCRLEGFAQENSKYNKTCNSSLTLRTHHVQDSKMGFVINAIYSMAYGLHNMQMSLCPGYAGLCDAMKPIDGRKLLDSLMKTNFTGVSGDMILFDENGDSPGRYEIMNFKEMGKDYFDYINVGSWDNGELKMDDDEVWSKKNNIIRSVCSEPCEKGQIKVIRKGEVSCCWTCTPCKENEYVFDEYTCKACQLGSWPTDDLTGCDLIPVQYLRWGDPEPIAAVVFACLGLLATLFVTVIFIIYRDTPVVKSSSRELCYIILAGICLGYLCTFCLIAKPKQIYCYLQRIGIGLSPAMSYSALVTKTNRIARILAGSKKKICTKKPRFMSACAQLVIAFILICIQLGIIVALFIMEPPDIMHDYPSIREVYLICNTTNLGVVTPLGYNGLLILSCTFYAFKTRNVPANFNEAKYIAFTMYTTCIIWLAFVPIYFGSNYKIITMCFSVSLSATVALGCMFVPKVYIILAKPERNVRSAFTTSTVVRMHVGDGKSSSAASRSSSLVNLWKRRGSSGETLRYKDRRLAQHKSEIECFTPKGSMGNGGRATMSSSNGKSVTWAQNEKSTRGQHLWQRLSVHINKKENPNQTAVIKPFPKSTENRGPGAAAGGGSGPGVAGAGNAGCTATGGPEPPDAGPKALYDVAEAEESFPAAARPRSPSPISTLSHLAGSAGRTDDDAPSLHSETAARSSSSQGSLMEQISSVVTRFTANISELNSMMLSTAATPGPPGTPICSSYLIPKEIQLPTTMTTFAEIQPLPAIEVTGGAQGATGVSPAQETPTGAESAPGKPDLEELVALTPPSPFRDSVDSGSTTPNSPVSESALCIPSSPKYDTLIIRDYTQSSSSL

With `Cc1cccc(C#Cc2ccccc2)n1` [MPEP, 2-methyl-6-(phenylethynyl)pyridine] as the compound, how does the IC50 [1] read?
Its IC50 is 1130 ± 360 nM.

And the IC50 [2]?
Its IC50 is 41.7 ± 4.7 nM.

And the IC50 [3]?
The IC50 was 119 ± 34.1 nM.

— PMC8753982 (ACS chemical neuroscience, 2019)
